# Source: PubChem BioAssay AID463215 (Sanford-Burnham Center for Chemical Genomics, 2010)
# This is a selection; strong and weak results do not stand in their true shares. Active and inactive are the calls of the source.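 The calls were made as follows: active = inhibition of yeast growth at or above a set limit in either of two replicates at 10 µM; inactive = the rest.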
# Assay: growth inhibitors of wild-type TIM10 yeast, confirmation, counter-screen for tim10-1 synthetic lethality project, single concentration, luminescence, S. cerevisiae (AID 463215);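 also: isogenic wild-type TIM10 control yeast grown in succinate dextrose medium; 0% = yeast with DMSO and 100% = medium wells lacking yeast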
# Settings: S. cerevisiae tim10 strain growth, BacTiter-Glo luminescence, 24 h; at 10 µM; active compounds read high
row,Compound,inhibition
1,O=[N+]([O-])c1cc([N+](=O)[O-])c(-c2cnn(-c3ccccc3)c2)c([N+](=O)[O-])c1,active: 73.2%
2,O=[N+]([O-])c1cc([N+](=O)[O-])c(Nc2ccccn2)c([N+](=O)[O-])c1,active: 42.3%
